The target in data set [1] is H4K5acK8ac nucleosome (human). The experiment in a line: ITC; BET bromodomain proteins (200-260 uM) titrated into nucleosomes (6-11 uM); 20 °C; 20 mM Tris pH 8.0, 150 mM NaCl, 1 mM EDTA, 1 mM TCEP. In general terms: Isothermal titration calorimetry measures the heat released or taken up as one component is titrated into another.
The target of data set [2] is Chimeric histone H3-H4K5acK8ac nucleosome (human) (UniProt P68431). The data set is described as above.
Data set [3] concerns the target N-BRDT(1) (Homo sapiens) (UniProt Q58F21). The experiment in a line: EMSA. As to conditions: EMSA: 20 mM Tris pH 7.5, 100 mM NaCl, 5 mM DTT, 0.5 mM EDTA, 4 C; ITC: 20 mM Tris pH 8.0, 150 mM NaCl, 1 mM EDTA, 1 mM TCEP, 20 C; NMR at 34 C. In general terms: Mobility shift assays separate free from complexed probe on a gel.

A word on the Kd: it is the free concentration of one partner at which half of the binding sites on the other are occupied at equilibrium, for simple one-to-one binding. A higher Kd goes with weaker binding. For orientation: stoichiometry N means a count of units in the complex or per binding partner.

Take “BRD4(1) (from UniProt O60885 44-168) (domain or fragment)”: in data set [1], the Kd turned out to be 11.8 µM and the stoichiometry N came to 1.52.
Consider “N-BRDT(1) (from UniProt Q58F21 1-143) (domain or fragment)”, for which, in data set [2], the Kd came to 4.8 µM and the stoichiometry N is 2.11. In data set [1], this substance yielded a stoichiometry N of 2.11.
“TCGGGGGCCGCCCTGGAGAATCCCGGTGCCGAGGCCGCTCAATTGGTCGTAGACAGCTCTAGCACCGCTTAAACGCACGTACGCGCTGTCCCCCGCGTTTTAACCGCCAAGGGGATTACTCCCTAGTCTCCAGGCACGTGTCAGATATATACATCCTGTGCATGTAC / CCGAGTACATGCACAGGATGTATATATCTGACACGTGCCTGGAGACTAGGGAGTAATCCCCTTGGCGGTTAAAACGCGGGGGACAGCGCGTACGTGCGTTTAAGCGGTGCTAGAGCTGTCTACGACCAATTGAGCGGCCTCGGCACCGGGATTCTCCAGGGCGGCCC [167 bp Widom DNA]” had a Kd in data set [3] of 15 µM. This lies in the double-digit micromolar range.

Values taken from PMC5187433, “A bromodomain–DNA interaction facilitates acetylation-dependent bivalent nucleosome recognition by the BET protein BRDT” (Nature Communications, 2016).
